The target in assay [1] is T1, human P2X7 receptor (Homo sapiens, UniProt Q99572). The experiment in a line: Ethidium bromide uptake fluorescence assay. Type of assay: cell-based.
The target in assay [2] is T1, human P2X7 receptor. The experiment in a line: Radioligand competition binding assay using [^3H]A804598.
Assay [3] concerns the target T1, human P2X7 receptor. Nature of the assay: Radioligand competition binding assay using [^123I]TZ6019.

Sequences of proteins named here, by UniProt entry; tags and fusion partners are left off. A change or cut given only in a name is not applied to a line headed by its entry.
UniProt Q99572: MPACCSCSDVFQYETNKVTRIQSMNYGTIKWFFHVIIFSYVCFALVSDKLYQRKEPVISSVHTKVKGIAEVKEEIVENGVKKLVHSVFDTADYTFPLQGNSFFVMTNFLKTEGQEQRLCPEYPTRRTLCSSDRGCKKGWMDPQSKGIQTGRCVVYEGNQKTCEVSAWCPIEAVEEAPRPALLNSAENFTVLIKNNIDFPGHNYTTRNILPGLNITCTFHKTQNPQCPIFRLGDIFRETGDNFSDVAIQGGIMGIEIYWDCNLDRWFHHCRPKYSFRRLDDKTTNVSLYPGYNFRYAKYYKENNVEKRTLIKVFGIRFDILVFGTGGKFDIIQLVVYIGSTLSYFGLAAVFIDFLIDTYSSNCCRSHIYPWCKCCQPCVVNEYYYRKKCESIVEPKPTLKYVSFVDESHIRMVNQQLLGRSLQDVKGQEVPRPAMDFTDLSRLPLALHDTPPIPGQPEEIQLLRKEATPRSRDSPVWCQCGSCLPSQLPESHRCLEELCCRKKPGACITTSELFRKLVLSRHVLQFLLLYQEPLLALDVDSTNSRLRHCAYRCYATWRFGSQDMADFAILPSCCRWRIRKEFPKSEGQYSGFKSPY

For `O=C(NCc1cccc(C(F)(F)F)c1Cl)[C@@H]1CCC(=O)N1CCF` [TZ5038, (S)-N-(2-chloro-3-(trifluoromethyl)benzyl)-1-(2-fluoroethyl)-5-oxopyrrolidine-2-carboxamide], the IC50 amounted to 9.93 ± 2.1 nM against human P2X7 receptor [1], 11.9 ± 2.2 nM at human P2X7 receptor [2] and 8.1 ± 1.3 nM at human P2X7 receptor [3].

The values above are taken from article PMC5767129 (European journal of pharmacology, 2017).
